A word on the inhibition: it is the relative decrease from the control value, in per cent.

The assay has as its system WT F9 cells. Description: Proliferation of F9 cells in monolayer culture (cell counting, [3H]thymidine incorporation, cell cycle FACS). Type of assay: cell-based, murine. To be noted: Mus musculus, F9, 144 h, 6 d, read-out: inhibition of growth relative to untreated control cells (cell counting). On the procedure:
Cells were plated in triplicate 3-cm culture wells (5×10^2 cells per well), and cell counting experiments were performed as previously described (Clifford, J., et al., EMBO J. 15:4142-4155 (1996)). [^3H]Thymidine incorporation assays were performed essentially as described (Clifford, J., et al., EMBO J. 15:4142-4155 (1996)), with the following modifications. Cells were cultured for 4 d in six replicate 3 -cm wells, in the presence or absence of 1 μM tRA, and three of the six wells were treated with 8 μCi/well [^3H]methylthymidine (20.0 Ci/mmol; Dupont-NEN, Boston, Mass.) for 2 h before harvesting. The cell cycle profile of WT and mutant cells was determined as previously described (Clifford, J., et al. EMBO J. 15:4142-4155 (1996)).

Molecules are shown by their SMILES.

In the case of `CC1=C(/C=C/C(C)=C/C=C/C(C)=C/C(=O)O)C(C)(C)CCC1` [tRA, all-trans retinoic acid], the inhibition at 1 µM is 79%.
